Tests used:
[1] = test system: PSMA-positive (LNCaP, CWR22R) human prostate cancer cells; test: Fluorescent peptide binding to PSMA-positive prostate cancer cells (confocal microscopy); assay type: cell-based; conditions: FITC-labeled peptide tested at 1, 5, 10, 50 μM; 1% fetal bovine serum media, 1 hr
Procedure: (§1) FIG. 5 depicts dimeric WQPDTAHHWATL (SEQ ID NO:1) peptide binds selectively to PSMA-producing prostate cancer cells. Attached PSMA-positive (LNCaP, CWR22R) and PSMA-negative (PC-3, DU145) human prostate cancer were prelabeled with Orange Cell Tracker (Invitrogen) at 2.5 μM in RPMI for 30 mins. After washing with Hanks balanced salt solution, cells were incubated with FITC-labeled monomeric (50 μM) or dimeric (5 μM) WQPDTAHHWATL (SEQ ID NO:1) peptide in 1% fetal calf serum containing media for 1 hr. Cells were washed 3 times with PBS and fixed with 1% Formalin for ½ hr at room temperature. Cells were visualized using Zeiss Meta 510 confocal microscope at 20× magnification. Top panels show orange cell tracker labeled cells (rhodamine filter set); middle panels show labeled peptide binding (FITC filter set); bottom panel show overlay of both panels.
(§2) Binding of WQPDTAHHWATL (SEQ ID NO:1) peptides to PSMA-expressing cell lines—To analyze peptide binding to membrane bound PSMA, fluorescently labeled peptides were synthesized by coupling FITC to the C-terminus of either the monomeric or dimeric peptide. […] In contrast, cell binding of the dimeric WQPDTAHHWATL (SEQ ID NO:1) peptide could be easily visualized at concentrations as low as 5 μM, FIG. 5. Labeled, dimeric peptide bound to a similar degree to both CWR22R and LNCAP.

[2] = test system: PSMA-negative (PC-3, DU145) human prostate cancer cells; test: Fluorescent peptide binding to PSMA-negative prostate cancer cells (confocal microscopy); assay type: cell-based; conditions: fluorescent labeled peptide
Procedure: as §1, §2

FITC-labeled dimeric WQPDTAHHWATL peptide: fluorescently labeled peptide made by coupling FITC to the C-terminus of the dimeric peptide
peptide concentration at which cell binding could be visualized [1]: 5 µM | binding above background to non-PSMA expressing prostate cancer cells [2]: no significant binding
